In this test the test system is HL-ICOs. As to the kind of experiment: Cytotoxicity (CellTiter-Glo ATP viability) in hepatocyte-like intrahepatic cholangiocyte organoids, 48 h exposure. Format: cell-based. The note with it: Homo sapiens, HL-ICOs differentiation day 12, ICO donor in fourth HL-ICO column, 48 h single dose, cell viability (ATP). The method, then:
The cell suspension was cultured in MatrigelTM (Corning, New York, NY, USA) droplets in expansion medium (EM) until organoids were formed, as previously described. EM consisted of Advanced DMEM/F12 (Life Technologies) supplemented with 1% (v/v) penicillin-streptomycin (Life Technologies), 1% (v/v) GlutaMax (Life Technologies), 10 mM HEPES (4-(2-hydroxyethyl)-1-piperazineethanesulfonic acid, Life Technologies), 2% (v/v) B27 supplement without vitamin A (Invitrogen, Carlsbad, CA, USA), 1% (v/v) N2 supplement (Invitrogen), 10 mM nicotinamide (Sigma-Aldrich, St Louis, MO, USA), 1.25 mM N-acetylcysteine (Sigma-Aldrich), 10% (v/v) R-spondin-1 conditioned medium (the Rspo1-Fc-expressing cell line was a kind gift from Calvin J. Kuo), 10 μM forskolin (Sigma-Aldrich), 5 μM A83-01 (transforming growth factor beta inhibitor; Tocris Bioscience, Bristol, UK), 50 ng/mL EGF (Invitrogen), 25 ng/mL HGF (Peprotech, Rocky Hill, NJ, USA), 0.1 μg/mL FGF10 (Peprotech) and 10 nM recombinant human ([…])-gastrin I (Sigma-Aldrich). Medium was changed twice a week. Passaging occurred every 7-10 days at ratios ranging between 1:2 and 1:4. All cultures were kept in a humidified atmosphere of 95% air and 5% CO2 at 37 °C. […] The viability of exposed cells was determined by cellular ATP levels using the CellTiter-Glo Luminescent Cell Viability Assay (Promega, Madison, WI, USA). […]
Background: ATP-based viability assays read luminescence as a measure of living cells.

Results on one compound are retold here after PMC9867526, “Drug Metabolism of Hepatocyte-like Organoids and Their Applicability in In Vitro Toxicity Testing” (Molecules, 2023).

The term EC50 denotes the midpoint of the concentration-response curve.

The structures appear in SMILES notation.

As to `O=C(O)Cc1ccccc1Nc1c(Cl)cccc1Cl` [Diclofenac], the EC50 was 476 µM.
